Measured values published in ChEMBL document CHEMBL3085675, “8-(2-Furyl)adenine derivatives as A₂A adenosine receptor ligands” (Eur J Med Chem, 2013).

Species on record: Homo sapiens
Assay: Selectivity ratio of Ki for human recombinant adenosine A1 receptor to Ki for human recombinant adenosine A2A receptor

Cn1c(-c2ccco2)nc2c(N)ncnc21
Ratio Ki: 8
